Measured values published in US20110059076A1, “HUMAN SERUM ALBUMIN LINKERS AND CONJUGATES THEREOF” (priority 2008, published 2011).

Key:
[1] = system: pAKT in BT-474-M3 xenografts that have reduced PTEN activity; test: pAKT Western blot of PTEN deficient BT-474-M3 xenograft tumors; type: in vivo; conditions: 30 mg/kg B2B3-1 every 3 days or 10 mg/kg trastuzumab weekly
From the text: Equal quantities of protein are loaded in each lane and total protein levels are controlled by probing for PCNA.

[2] = system: control BT-474-M3 breast cancer cell xenografts; test: BT-474-M3 shControl xenografts; type: in vivo, nude mice; conditions: 30 mg/kg B2B3-1 every 3 days or 10 mg/kg trastuzumab every week, i.p.
Procedure: (§1) ShRNA technology is applied to knock out the activity of the tumor suppressor gene phosphatase and tensin homolog (PTEN) in BT-474-M3 breast cancer cells. Briefly, cultured BT-474-M3 cells are transfected with shPTEN or shControl RNA by retroviral transfection. Transfected cells with reduced PTEN are selected using FACS and subsequently injected subcutaneously into the right flank of nude mice to establish xenograft tumors. Cells transfected with a control vector are injected into the left flank of the same mouse. […] HSA is injected as a control at an equimolar dose to B2B3-1. All injections are done i.p.

BT-474-M3 xenograft = test: combination with trastuzumab in BT-474-M3 xenograft model; type: in vivo, athymic nude mice (nu/nu); conditions: single agent, trastuzumab 1 mg/kg q7d
Procedure: Mice receive a subcutaneous estrogen-releasing implant in the opposite flank (0.72 mg pellet, 60 day, slow-release, Innovative Research of America, Sarasota, Fla.) 24 h prior to the injection of 20×10^6 human BT-474-M3cells in PBS. Dosing is initiated when tumor growth is established (tumor volumes of approximately 400 mm^3). Tumors are measured twice a week using digital calipers. Tumor volume is calculated using the formula: π/6×(W^2×L), where W is the short diameter and L is the long diameter.

[3] = system: pErbB3 and pAKT in BT-474-M3 cells; test: Western blot of heregulin induced ErbB3 activity in BT-474-M3 cells; type: cell-based; conditions: BT-474-M3, 24 hours, 10 nM or 100 nM, with or without 5 nM HRG 1β EGF
From the text: Lysates are subjected to immunoblot analysis for ErbB3, pErbB3, AKT, and pAKT.

[4] = system: BT-474-M3 shPTEN xenografts; test: BT-474-M3 shPTEN xenografts (reduced PTEN activity); type: in vivo, nude mice; conditions: 30 mg/kg B2B3-1 every 3 days or 10 mg/kg trastuzumab every week, i.p.
Procedure: as §1

## trastuzumab [reference compound]
[1]
  pAKT in tumors (densitometry of Western blot): did not
[2]
  size of tumors formed by control BT-474-M3 cells: promoted a reduction
BT-474-M3 xenograft
  mice with completely regressed tumors: 0 out of 10
[3]
  inhibition of pAKT: only seen in the absence of ligand
  inhibition of pErbB3: only seen in the absence of ligand
[4]
  size of tumors formed by BT-474-M3 cells lacking expression of PTEN: not
